From patent publication US12152264B2, “Phosphinothricin dehydrogenase mutant, genetically engineered bacterium and one-pot multi-enzyme synchronous directed evolution method” (ZHEJIANG UNIVERSITY OF TECHNOLOGY, priority 2020, dated 2024)

Assays:
[1] = target: Pseudomonas fluorescens phosphinothricin dehydrogenase (PPTDH, PfGluDH; WP_150701510.1) mutant A164G_R205K_T332A, SEQ ID No.1 (Pseudomonas azerbaijanoccidentalis, UniProt A0ABS6QXK2, A164G/R205K/T332A); settings: read-out: Km^A (apparent substrate affinity for NADPH), PPO 2-30 mM, 50 mM ammonium sulfate, NADPH 1-15 mM, 100 mM phosphate buffer pH 7.0, 40° C.
[2] = target: Pseudomonas fluorescens phosphinothricin dehydrogenase (PPTDH, PfGluDH; NCBI accession number WP_150701510.1), wild type (Pseudomonas azerbaijanoccidentalis, UniProt A0ABS6QXK2); assay: Determination of kinetic parameters of wild-type phosphinothricin dehydrogenase (PPO reductive amination with NADPH); settings: read-out: Km^A (apparent substrate affinity for NADPH), PPO 2-30 mM, 50 mM ammonium sulfate, NADPH 1-15 mM, 100 mM phosphate buffer pH 7.0, 40° C.

NC(=O)C1=CN([C@@H]2O[C@H](COP(=O)(O)OP(=O)(O)OC[C@H]3O[C@@H](n4cnc5c(N)ncnc54)[C@H](OP(=O)(O)O)[C@@H]3O)[C@@H](O)[C@H]2O)C=CC1 [NADPH]
Km [1]: 90 µM | Km [2]: 140 µM
